Here are results for one molecule from patent publication US20250382287A1, “PHARMACEUTICALLY ACCEPTABLE SALT AND CRYSTAL FORM OF NITROGEN-CONTAINING BRIDGE HETEROCYCLIC DERIVATIVE, AND METHOD FOR PREPARING SAME” (JIANGSU HENGRUI PHARMACEUTICALS CO., LTD., priority 2022, published 2025).

Sequences of proteins named here, by UniProt entry; tags and fusion partners are left off. Residues count along the entry.
UniProt P00751, 260-764 limits assumed: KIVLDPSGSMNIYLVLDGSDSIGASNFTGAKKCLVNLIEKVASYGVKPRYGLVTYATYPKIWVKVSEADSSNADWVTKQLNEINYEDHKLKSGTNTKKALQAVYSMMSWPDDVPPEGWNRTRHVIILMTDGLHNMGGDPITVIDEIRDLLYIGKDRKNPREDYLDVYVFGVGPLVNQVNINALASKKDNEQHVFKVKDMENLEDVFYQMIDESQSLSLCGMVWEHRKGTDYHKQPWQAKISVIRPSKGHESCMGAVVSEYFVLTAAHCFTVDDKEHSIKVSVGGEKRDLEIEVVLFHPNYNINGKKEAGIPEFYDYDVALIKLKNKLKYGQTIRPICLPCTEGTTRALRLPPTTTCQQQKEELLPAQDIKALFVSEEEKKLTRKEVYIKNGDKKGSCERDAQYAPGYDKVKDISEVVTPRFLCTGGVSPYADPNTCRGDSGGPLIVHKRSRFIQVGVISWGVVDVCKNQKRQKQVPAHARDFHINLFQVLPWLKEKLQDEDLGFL

What is called IC50 is the midpoint of a concentration-inhibition curve.

The target of the experiment is Factor B enzyme (recombinant human complement factor B protein, as CVF:Bb complex) (Homo sapiens, UniProt P00751). Nature of the experiment: biochemical.

With `CCO[C@H]1C[C@H]2CC[C@@](c3ccc(C(=O)O)cc3)(C1)N2Cc1c(OC)cc(C)c2[nH]ccc12` [compound I, 4-((1S,3S,5R)-3-ethoxy-8-((5-methoxy-7-methyl-1H-indol-4-yl)methyl)-8-azabicyclo[3.2.1]octan-1-yl)benzoic acid], the IC50 amounted to 1.3 nM.
